PglD DTNB: inhibitors of Campylobacter jejuni PglD acetyltransferase. purified PglD enzyme, DTNB colorimetric CoA detection. inhibition, % at 12.5 µM. 0.098% of 360,000 active; in the data active means inhibition above about 16%, passing the limit was not always enough
CAL PDZ FP-1: blocks peptide binding to the human CAL PDZ domain; Q9HD26; purified CAL PDZ, TMR-peptide fluorescence polarization, 1 h; inhibition, % at 24.9 µM; 0.92% of 300,000 active; AID 602252;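 active means mean inhibition of at least 30% with at least half of replicates also reaching 30%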;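 further: 0% = DMSO neutral control and 100% = excess unlabeled competitor peptide PRC23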
CAL PDZ FP-2: blocks peptide binding to human CAL PDZ domain; AID 504414; Q9HD26; inhibition, % at 20 µM; purified CAL PDZ, TMR-peptide fluorescence polarization, 1 h; 0.02% of 330,000 active;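 active means highest replicate inhibition of at least 40%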;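 further: plate controls were DMSO neutral control wells for no effect and unlabeled competitor peptide control wells for full effect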
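Assay system – tagged CAL PDZ protein CerCALP, purified · Timing – 1 h at RT · Compound – single point, 20 µM · Measured by – fluorescence polarization from S- and P-plane intensities, G-factor corrected · Evaluation – inhibition from polarization loss · Probe or stimulus – TMR reporter peptide T*-PRC34 · Buffer or medium – pH 7.4 phosphate-saline buffer, reducing agent, detergent, IgG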
Vif inh: inhibitors of HIV Vif. 0.35% of 340,000 active. inhibition, % at 7.49 µM. HEK293T cells, Vif self-association by quenched fluorescence, imaging, 24 h; in the data active means inhibition above about 50%, passing the limit was not always enough
Yeast UUG start: modulators of start codon recognition fidelity in yeast; AID 602363; hit rate 0.13% among 350,000; activity score, % at 18.7 µM; S. cerevisiae UUG-firefly luciferase reporter, luminescence/redox ratio;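 active = replicate mean at a twofold rise or more, about +100% in these data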;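 note: firefly luciferase made from a UUG start codon reports start codon fidelity; reporter light over untreated wells divided by growth signal over untreated wells; some hits fall short of that in this replicate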
ARNT-TACC3 inh: disrupts binding between human ARNT and TACC3 | AlphaScreen His-ARNT PAS-B/GST-TACC3 binding, luminescence; TACC3 fragment carries E629A point mutation | AID 623870 | 0.66% of 390,000 active | inhibition, % at 9.99 µM;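 active means mean inhibition of replicates at least 50% and at least half of replicates each reaching 50%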;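 further: 0% = complete ARNT plus TACC3 wells and 100% = ARNT alone without TACC3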
Active calls of the source: *. Only some compounds are listed: those with a hit (about 1.6% of all), similar ones and a draw of the others.

`Cc1cccc(N2CCN(C(=O)c3cccc(S(=O)(=O)N4CCCCC4)c3)CC2)c1C` gave PglD DTNB 0.9, CAL PDZ FP-1 69.0*, CAL PDZ FP-2 -0.1, Vif inh -8.1, Yeast UUG start 1.8 and ARNT-TACC3 inh 5.0.
For O=C(Nc1ccc(C(=O)N2CCCC2)cc1)C1CCCCC1 the results were PglD DTNB 4.9, CAL PDZ FP-1 -4.6, CAL PDZ FP-2 -0.4, Vif inh 1.2, Yeast UUG start -1.7 and ARNT-TACC3 inh -6.2.
For O=C(Nc1ccc(C(=O)N2CCCCC2)cc1)C1CC1 the results were PglD DTNB 0.6, CAL PDZ FP-1 41.9*, CAL PDZ FP-2 0.0, Vif inh -3.6, Yeast UUG start -5.6 and ARNT-TACC3 inh 19.9.
O=C(c1ccc(S(=O)(=O)N2CCCC2)cc1)N1CCCCCC1 was read as PglD DTNB 4.6, CAL PDZ FP-1 66.9*, CAL PDZ FP-2 -1.3, Vif inh -1.9, Yeast UUG start -23.8 and ARNT-TACC3 inh -8.6.
`C[C@H](O)C#Cc1cnc2c(c1)C(=O)N([C@@H](C)CO)C[C@H](C)[C@@H](CN(C)Cc1cccc(F)c1)O2` gave PglD DTNB 7.7, Yeast UUG start -8.9 and ARNT-TACC3 inh -5.0.
Screening Cc1noc(C)c1NC(=O)Nc1ccc2c(c1)C(=O)N([C@@H](C)CO)C[C@@H](C)[C@@H](CN(C)C(=O)Nc1ccccc1)O2 returned Yeast UUG start -11.7.
`COc1ccc(NC(=O)CSc2nc(C3CC3)nc3ccccc23)cc1` gave PglD DTNB -2.9, CAL PDZ FP-1 9.2, CAL PDZ FP-2 -4.6, Vif inh 10.8, Yeast UUG start -13.4 and ARNT-TACC3 inh 0.8.
Screening CC(=O)c1ccc(NC(=O)CSc2nc(C3CC3)nc3ccccc23)cc1 returned PglD DTNB -4.0, CAL PDZ FP-1 -4.2, CAL PDZ FP-2 -2.6, Vif inh 51.0*, Yeast UUG start 0.5 and ARNT-TACC3 inh 1.8.
`Cc1noc(C)c1S(=O)(=O)Nc1cccc2c1O[C@H](CN(C)CC1CC1)[C@H](C)CN([C@H](C)CO)C2=O` gave PglD DTNB 6.6, Yeast UUG start -0.5 and ARNT-TACC3 inh -2.6.
Cc1nn(CCOc2cccc(Br)c2)c(C)c1[N+](=O)[O-] was read as CAL PDZ FP-1 58.7*, CAL PDZ FP-2 -1.4, Vif inh 9.3 and ARNT-TACC3 inh -5.5.
For Cc1ccc(OCCOc2cccc(Br)c2)c([N+](=O)[O-])n1 the results were CAL PDZ FP-1 -1.4, CAL PDZ FP-2 -0.3, Vif inh 0.2 and ARNT-TACC3 inh -10.9.
C=C(C)CSc1nnc([C@@H]2CCCN2)o1 was read as CAL PDZ FP-1 41.6*, CAL PDZ FP-2 -0.4, Vif inh 3.7 and ARNT-TACC3 inh 1.0.
CC(C)(C)NCC(O)COc1ccccc1C1CCCC1 (stereo not drawn) was read as PglD DTNB -0.4, CAL PDZ FP-1 -5.9, CAL PDZ FP-2 -0.5, Vif inh 51.6*, Yeast UUG start -17.2 and ARNT-TACC3 inh -2.8.
`CO[C@H]1CN(C)C(=O)c2ccc(NS(C)(=O)=O)cc2OC[C@@H](C)N(C(=O)C2CCC2)C[C@H]1C` gave PglD DTNB 1.4, Yeast UUG start 24.2 and ARNT-TACC3 inh -1.7.
For Cc1ccc(NC(=O)c2ccc(S(=O)(=O)N3CCCCCC3)cc2)nc1 the results were PglD DTNB 3.6, CAL PDZ FP-1 1.4, CAL PDZ FP-2 -3.8, Vif inh -26.7, Yeast UUG start -15.2 and ARNT-TACC3 inh -2.2.

Continued, starting with the last 3 of the part before.
CC(C)(C)NCC(O)COc1ccccc1C1CCCC1 (stereo not drawn) was read as PglD DTNB -0.4, CAL PDZ FP-1 -5.9, CAL PDZ FP-2 -0.5, Vif inh 51.6*, Yeast UUG start -17.2 and ARNT-TACC3 inh -2.8.
`CO[C@H]1CN(C)C(=O)c2ccc(NS(C)(=O)=O)cc2OC[C@@H](C)N(C(=O)C2CCC2)C[C@H]1C` gave PglD DTNB 1.4, Yeast UUG start 24.2 and ARNT-TACC3 inh -1.7.
For Cc1ccc(NC(=O)c2ccc(S(=O)(=O)N3CCCCCC3)cc2)nc1 the results were PglD DTNB 3.6, CAL PDZ FP-1 1.4, CAL PDZ FP-2 -3.8, Vif inh -26.7, Yeast UUG start -15.2 and ARNT-TACC3 inh -2.2.
`Cc1ccc(NC(=O)c2ccc(S(=O)(=O)N3CCC(C)CC3)cc2)nc1` gave PglD DTNB 4.6, CAL PDZ FP-1 47.9*, CAL PDZ FP-2 -0.1, Vif inh -7.9, Yeast UUG start -15.3 and ARNT-TACC3 inh -3.7.
For CCCC(=O)Nc1ccc2c(c1)C(=O)N(C)C[C@H](OC)[C@H](C)CN(CCC(F)(F)F)[C@@H](C)CO2 the results were PglD DTNB -4.4 and ARNT-TACC3 inh 24.2.
CC(C)n1ncc2c(C(=O)NCC(=O)Nc3ccccc3Br)cc(C3CC3)nc21 was read as PglD DTNB 3.9, CAL PDZ FP-1 46.5*, CAL PDZ FP-2 -0.2, Vif inh 9.6, Yeast UUG start -8.7 and ARNT-TACC3 inh -3.6.
CC(C)NC(=O)N(C)C[C@@H]1Oc2c(NC(=O)C3CCCCC3)cccc2C(=O)N([C@H](C)CO)C[C@H]1C was read as PglD DTNB -3.2, Yeast UUG start -1.1 and ARNT-TACC3 inh -6.0.
For CCCCn1c(SCC(=O)Nc2nnc(C(C)C)s2)nc2c1c(=O)n(C)c(=O)n2C the results were PglD DTNB -2.0, CAL PDZ FP-1 -2.8, CAL PDZ FP-2 -0.9, Vif inh 52.0*, Yeast UUG start 7.3 and ARNT-TACC3 inh -5.1.
Screening Cn1c(SCC(N)=O)nnc1-c1ccc(S(=O)(=O)N2CCCC2)cc1 returned PglD DTNB -1.0, CAL PDZ FP-1 41.8*, CAL PDZ FP-2 0.0, Vif inh 1.5, Yeast UUG start -5.7 and ARNT-TACC3 inh 2.8.
For CCOc1ccc(Nc2nc3c(C)cccc3cc2C#N)cc1 the results were PglD DTNB 2.2, CAL PDZ FP-2 1.3, Vif inh 82.2*, Yeast UUG start -13.8 and ARNT-TACC3 inh -20.4.
For COc1ccccc1Nc1nc2c(C)cccc2cc1C#N the results were PglD DTNB 0.2, CAL PDZ FP-2 -0.3, Vif inh 7.4, Yeast UUG start -1.6 and ARNT-TACC3 inh -4.3.
Screening O=C(N/N=C/c1ccc(O)cc1O)/C(=C/c1ccccc1)CCO returned PglD DTNB -0.7, CAL PDZ FP-1 -0.3, CAL PDZ FP-2 -2.3, Vif inh 0.5, Yeast UUG start -24.2 and ARNT-TACC3 inh 70.4*.
For Cc1cc([N+](=O)[O-])nn1CC(=O)N/N=C/c1ccc(O)cc1O the results were PglD DTNB 0.4, CAL PDZ FP-1 -3.7, CAL PDZ FP-2 -2.3, Yeast UUG start -33.0 and ARNT-TACC3 inh 70.7*.
Cc1ccc(NC(=O)CCC(=O)N/N=C/c2ccc(O)cc2O)cc1 was read as PglD DTNB 5.2, CAL PDZ FP-1 -6.0, CAL PDZ FP-2 -0.8, Vif inh -13.3, Yeast UUG start -14.1 and ARNT-TACC3 inh 71.1*.
For COc1cc(/C=N/NC(=O)/C(=C/c2ccccc2)CCO)ccc1O the results were PglD DTNB 7.3, CAL PDZ FP-1 -2.5, CAL PDZ FP-2 -2.3, Vif inh -13.0, Yeast UUG start -16.2 and ARNT-TACC3 inh -5.3.
For Cc1ccc(S(=O)(=O)N(C)C[C@@H]2Oc3ncc(C#Cc4ccc(C(F)(F)F)cc4)cc3C(=O)N([C@H](C)CO)C[C@@H]2C)cc1 the results were PglD DTNB 4.6, Yeast UUG start -14.1 and ARNT-TACC3 inh 8.9.
`CC(=O)NC(C)c1cc(F)c2cccnc2c1O` (stereo not drawn) gave PglD DTNB 0.5, CAL PDZ FP-1 -1.2, CAL PDZ FP-2 0.0, Vif inh -5.7, Yeast UUG start -22.9 and ARNT-TACC3 inh 74.5*.

Assay outcomes deposited in PubChem BioAssay by Broad Institute.
